What was measured:
Conditions in all cases: 24 h
HepG2 cells [1] = test: LDH release assay; type: cell-based, human
MAC-T cells [2] = test: MTT assay; type: cell-based, bovine
MAC-T cells [3] = test: LDH release assay; type: cell-based, bovine
HepG2 cells [4] = test: MTT assay; type: cell-based, human

## O=[N+]([O-])c1ccc(Cl)c2nonc12
HepG2 cells [1]
  CC50: 9.6 µM
MAC-T cells [2]
  CC50: 27.6 µM
MAC-T cells [3]
  CC50: 22.4 µM
HepG2 cells [4]
  CC50: 16.7 µM

— article PMC10451377, “Rationally Designed Pyrimidine Compounds: Promising Novel Antibiotics for the Treatment of Staphylococcus aureus-Associated Bovine Mastitis” (Antibiotics, 2023)
